Screening data: PubChem BioAssay, Broad Institute
Yeast UUG start – modulators of yeast start codon fidelity, primary screen, whole organism, S. cerevisiae, single point, plate reader | AID 602363, 2012 | actives 0.13% (n = 350,000) | activity score, % at 18.7 µM | S. cerevisiae UUG-firefly luciferase reporter, luminescence/redox ratio;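 active means replicate mean at a twofold rise or more, about +100% in these data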;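 further: firefly luciferase made from a UUG start codon reports start codon fidelity; reporter light over untreated wells divided by growth signal over untreated wells; some hits fall short of that in this replicate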
FGF22 binding-1 – FGF22 (human) thermal shift binding | activity (Tm shift, normalised), % at 9.99 µM | 1.5% of 340,000 active | recombinant FGF22 thermal shift, SYPRO orange fluorescence; percent of sucrose octasulfate shift, DMSO zero | Q9HCT0;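 active = mean Tm shift, scaled 0 neutral to 100 positive control, at about 1.3% or above, every replicate too, limit read from the data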
ERp5 block – blocks human ERp5 reductase activity on insulin; Q15084; inhibition, % at 9.99 µM; 0.05% of 350,000 active; ERp5 insulin aggregation, absorbance 650 nm, 90 min;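 active = mean replicate inhibition above about 25%, with every replicate also reaching it, limit read from the data, passing the limit was not always enough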
PglD DTNB – inhibitors of Campylobacter jejuni PglD acetyltransferase; purified PglD enzyme, DTNB colorimetric CoA detection; inhibition, % at 12.5 µM; 0.098% of 360,000 active; in the data active = inhibition above about 16%, passing the limit was not always enough
PDI turbidity – inhibitors of human protein disulfide isomerase | PDI insulin aggregation turbidity, A650, 90 min | P07237 | inhibition, % at 10 µM | 0.052% of 350,000 active | AID 588391;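 active = mean inhibition across replicates of 30% or more, whatever share of single replicates reach that level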
ARNT-TACC3 inh – ARNT/TACC3 interaction disruption; 0.66% of 390,000 active; inhibition, % at 9.99 µM; Q9Y6A5; AlphaScreen His-ARNT PAS-B/GST-TACC3 binding, luminescence; TACC3 fragment carries E629A point mutation; AID 623870;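 active = mean inhibition of replicates at least 50% and at least half of replicates each reaching 50%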
FGF22 binding-2 – binds human FGF22 shifting its melting temperature | shares compounds with FGF22 binding-1 | recombinant FGF22 thermal shift, SYPRO orange fluorescence | thermal shift activity, °C (ΔTm) at 38 µM | 2% of 1,000 active;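 active = fitted rise in melting shift crosses a set limit at or below the top valid dose tested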
TSA no protein – compound-only SYPRO artifact for FGF22 binders; compound-only SYPRO orange thermal shift counter-screen, no protein; 2% of 1,000 active; AC50, µM (series often up to 38 µM); shares compounds with FGF22 binding-1;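 active = rising signal whose fitted curve reaches the 0.54 level within the top valid dose, showing a melting point, actives reach about 13 µM in these data; inactive = the rest, including activity in the opposite direction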; note: value is where the raw curve crosses a fixed level and not half-maximal
Hits are given with their value; – = inactive; · = no result given. Compounds with a hit are over-represented: about 1.9% of the library has one in this group of screens.

SMILES | Yeast UUG start | FGF22 binding-1 | ERp5 block | PglD DTNB | PDI turbidity | ARNT-TACC3 inh | FGF22 binding-2 | TSA no protein
C[C@@H]1CCCCO[C@@H](CN(C)CC2CC2)[C@H](C)CN([C@H](C)CO)C(=O)c2cc(NC(=O)Nc3cccc4ccccc34)ccc2O1 | – | – | · | – | · | – | · | ·
C[C@H](CO)N1C[C@H](C)[C@H](CN(C)S(=O)(=O)c2ccccc2)OCCCC[C@H](C)Oc2ccc(NS(C)(=O)=O)cc2C1=O | – | – | – | – | · | – | · | ·
CN(C(=O)CCc1nnc(CCCCc2ccccc2)o1)C1CC(C)(C)NC(C)(C)C1 | · | – | – | · | – | – | · | ·
CN(C(=O)CCc1nnc(CCCCc2ccccc2)o1)C1CCOCC1 | · | 1.4 | – | · | – | – | – | –
Cc1noc(C)c1S(=O)(=O)Nc1ccc2c(c1)C(=O)N([C@H](C)CO)C[C@@H](C)[C@H](CN(C)S(=O)(=O)c1cn(C)cn1)OCCCC[C@@H](C)O2 | – | – | – | – | · | – | · | ·
CCC(=O)Nc1nc(C)c(-c2csc(Nc3ccccn3)n2)s1 | · | 1.6 | – | · | – | – | · | –
O=C1COc2ccc(S(=O)(=O)N3CCCC3)cc2N1 | – | 1.5 | – | – | – | – | – | –
O=C1COc2ccc(S(=O)(=O)N3CCCCC3)cc2N1 | – | – | – | – | – | – | · | ·
CCNc1c(NS(=O)(=O)c2ccc(Br)s2)c(=O)oc2ccccc12 | – | 1.8 | – | – | – | – | – | –
Cc1nc2ccc(C(=O)N/N=C/c3ccccc3O)cc2[nH]1 | – | 1.5 | – | – | – | 93 | – | –
O=[N+]([O-])c1ccc2nc(-c3ccc(Cl)cc3)[nH]c2c1 | · | 1.8 | – | · | – | – | – | –
COc1ccc2nc(-c3ccccc3)[nH]c2c1 | – | · | · | – | – | – | · | ·
O=[N+]([O-])c1cccc(-c2nc3ccc([N+](=O)[O-])cc3[nH]2)c1 | · | – | – | · | – | – | · | ·
COc1ccc(-c2nc3ccc([N+](=O)[O-])cc3[nH]2)cc1 | · | 2.6 | – | · | – | – | – | –
O=C(CN1CCOCC1)NCC[C@H]1CC[C@@H](NC(=O)Nc2ccccc2)[C@H](CO)O1 | – | – | – | – | · | – | · | ·
Cc1noc(C)c1NC(=O)N(C)C[C@@H]1OCCCC[C@H](C)Oc2ccc(NC(=O)NC(C)C)cc2C(=O)N([C@@H](C)CO)C[C@@H]1C | – | – | – | – | · | – | · | ·
Cc1ccccc1-c1ccccc1[C@@H]1[C@@H](C#N)N(C(=O)c2ccccc2)[C@H]1CO | · | 1.3 | – | · | · | · | – | –
O=C(Nc1cccc(F)c1)N1CC(=O)N2[C@H](CO)[C@@H](c3ccc(Br)cc3)[C@H]2C1 | · | – | – | · | · | · | · | ·
O=C(NC1CCCCC1)N1CC(=O)N2[C@H](CO)[C@H](c3ccc(-c4cccc(F)c4)cc3)[C@H]2C1 | · | 1.4 | – | · | · | · | – | –
O=C(NC1CCCCC1)N1CC(=O)N2[C@H](C1)[C@H](c1ccc(-c3cccc(F)c3)cc1)[C@@H]2CO | · | – | – | · | · | · | · | ·
O=C(Nc1cccc(F)c1)N1CC(=O)N2[C@@H](CO)[C@@H](c3ccc(Br)cc3)[C@@H]2C1 | · | 1.3 | – | · | · | · | – | –
O=S(=O)(O)c1cccc2cccc(Nc3ccccc3)c12 | – | 1.5 | – | – | – | – | – | –
O=C(C1CC1)N1[C@H](CO)[C@H]2c3ccccc3N(S(=O)(=O)c3ccccc3)C[C@H]21 | – | 2.0 | – | – | · | – | – | –
O=C(C1CCCCC1)N1[C@@H]2CN(S(=O)(=O)c3ccccc3)c3ccccc3[C@@H]2[C@@H]1CO | – | – | – | – | · | – | · | ·
O=C(Nc1ccc(Cl)cc1)N1C[C@@H]2[C@H](c3ccccc31)[C@H](CO)N2C(=O)C1CC1 | – | 3.4 | – | – | · | – | – | –
SMILES | Yeast UUG start | FGF22 binding-1 | ERp5 block | PglD DTNB | PDI turbidity | ARNT-TACC3 inh | FGF22 binding-2 | TSA no protein
C[C@@H]1CN([C@@H](C)CO)C(=O)c2cc(NS(C)(=O)=O)ccc2O[C@@H](C)CCCCO[C@H]1CN(C)S(=O)(=O)c1cccs1 | – | – | – | – | · | – | · | ·
CCCC(=O)N1CC2(CN(C(=O)C3CCC3)C2)c2c(n(C)c3cc(OC)ccc23)[C@@H]1CO | · | – | – | · | · | · | · | ·
C[C@H](O)C#Cc1ccc2c(c1)O[C@@H](CN(C)C(=O)CN(C)C)[C@H](C)CN([C@H](C)CO)S2(=O)=O | – | – | – | – | · | – | · | ·
O=C(NC1CC1)c1cccc(NC(=O)c2cnn(-c3ccccc3)n2)c1 | – | 1.4 | – | – | – | – | – | –
O=C(O)c1ccccc1Nc1ccccc1C(=O)O | – | – | – | – | – | – | · | ·
O=C(O)c1ccccc1Nc1ccc([N+](=O)[O-])cc1 | · | 1.7 | – | · | – | · | – | –
Cc1ccc(S(=O)(=O)N2C[C@]3(O)C[C@@H]4C(=O)N(c5ccccc5)C(=O)[C@@H]4C[C@]3(OC(=O)NCC3CCCCC3)C2)cc1 | – | 3.2 | – | – | – | · | – | –
